US10189853B2, “Conformationally restricted 4-substituted-2,6-dimethylfuro[2,3-d]pyrimidines as anti-tumor agents” (DUQUESNE UNIVERSITY OF THE HOLY SPIRIT, priority 2014, dated 2019)

Amino acid sequences for entries named in this document (tags omitted). Residues count along the entry.
UniProt P09619, 33-1106: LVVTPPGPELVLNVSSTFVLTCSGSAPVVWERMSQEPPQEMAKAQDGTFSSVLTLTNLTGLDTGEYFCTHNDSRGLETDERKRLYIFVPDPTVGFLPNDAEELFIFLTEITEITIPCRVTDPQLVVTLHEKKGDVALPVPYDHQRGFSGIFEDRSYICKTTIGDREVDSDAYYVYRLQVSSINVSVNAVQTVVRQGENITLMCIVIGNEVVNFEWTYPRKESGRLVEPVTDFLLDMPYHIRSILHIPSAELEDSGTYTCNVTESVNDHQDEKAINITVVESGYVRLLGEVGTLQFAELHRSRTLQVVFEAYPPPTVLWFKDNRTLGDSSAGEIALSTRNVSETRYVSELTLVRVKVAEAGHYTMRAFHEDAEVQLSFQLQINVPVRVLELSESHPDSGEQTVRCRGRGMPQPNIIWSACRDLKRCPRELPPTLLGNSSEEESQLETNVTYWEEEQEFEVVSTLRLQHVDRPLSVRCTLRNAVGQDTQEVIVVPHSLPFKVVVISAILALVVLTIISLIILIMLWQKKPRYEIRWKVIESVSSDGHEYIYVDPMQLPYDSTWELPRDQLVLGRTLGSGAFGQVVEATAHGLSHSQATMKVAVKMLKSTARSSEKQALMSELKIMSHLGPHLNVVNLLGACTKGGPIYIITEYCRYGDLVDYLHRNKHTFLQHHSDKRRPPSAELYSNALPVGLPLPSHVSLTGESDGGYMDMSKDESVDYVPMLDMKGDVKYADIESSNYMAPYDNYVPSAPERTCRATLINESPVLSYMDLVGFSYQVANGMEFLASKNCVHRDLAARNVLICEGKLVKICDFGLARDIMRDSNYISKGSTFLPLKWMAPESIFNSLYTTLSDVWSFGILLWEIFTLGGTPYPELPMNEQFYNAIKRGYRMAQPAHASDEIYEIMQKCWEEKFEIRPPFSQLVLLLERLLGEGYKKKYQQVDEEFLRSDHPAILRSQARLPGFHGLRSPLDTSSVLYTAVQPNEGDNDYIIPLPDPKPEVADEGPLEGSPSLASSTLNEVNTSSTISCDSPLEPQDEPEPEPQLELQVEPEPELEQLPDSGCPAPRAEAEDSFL

Legend:
PDGFR-β = PDGFR-β (Homo sapiens (Human), UniProt P09619); assay: PDGFR-β kinase inhibition, phosphotyrosine ELISA cytoblot; assay type: cell-based; details: SH-SY5Y cells
purified tubulin = assay: Inhibition of tubulin assembly; assay type: biochemical; details: read-out: Inhibition tubulin assembly IC50 ± SD

**Q.** With `COc1ccc2c(ccn2-c2nc(C)nc3oc(C)cc23)c1` [Compound 9, 4-(5-methoxy-1H-indol-1-yl)-2,6-dimethylfuro[2,3-d]pyrimidine] as the molecule, how does the IC50 (PDGFR-β) read?
**A.** The IC50 was 0.198 ± 0.0225 µM.

**Q.** How did the IC50 (purified tubulin) turn out when `COc1ccc2c(c1)CCCN2c1nc(C)nc2oc(C)cc12` [Compound 10, 4-(6-methoxy-3,4-dihydroquinolin-1(2H)-yl)-2,6-dimethylfuro[2,3-d]pyrimidine] was run?
**A.** Its IC50 is 1.1 ± 0.1 µM.
